Key:
[1] = AFM of Herceptin on CH-19 peptide SAM on Au; type: physicochemical; conditions: AFM in PBS buffer, after 1 hour exposure to CH-19 SAM
[2] = QCM Herceptin concentration in breast cancer patient serum; type: in vivo, human; conditions: patient #3, metastatic ER PR Her2/neu positive, after infusion; C = (ΔF +1.0022) ÷ 0.9997 × 10

Substance: Herceptin: humanized MAb binding extracellular domain IV segment of HER2
- average height of adsorbed Herceptin particles [1]: 0.1 nm
- Tested C of Herceptin in undiluted serum [2]: 193.18 µg/mL
